Experimental data from patent US9290485B2, “N-((6-amino-pyridin-3-yl)methyl)-heteroaryl-carboxamides” (NOVARTIS AG, priority 2010, dated 2016).

Sequences of proteins named here, by UniProt entry; tags and fusion partners are left off.
UniProt P03952, whole entry partner, looked up: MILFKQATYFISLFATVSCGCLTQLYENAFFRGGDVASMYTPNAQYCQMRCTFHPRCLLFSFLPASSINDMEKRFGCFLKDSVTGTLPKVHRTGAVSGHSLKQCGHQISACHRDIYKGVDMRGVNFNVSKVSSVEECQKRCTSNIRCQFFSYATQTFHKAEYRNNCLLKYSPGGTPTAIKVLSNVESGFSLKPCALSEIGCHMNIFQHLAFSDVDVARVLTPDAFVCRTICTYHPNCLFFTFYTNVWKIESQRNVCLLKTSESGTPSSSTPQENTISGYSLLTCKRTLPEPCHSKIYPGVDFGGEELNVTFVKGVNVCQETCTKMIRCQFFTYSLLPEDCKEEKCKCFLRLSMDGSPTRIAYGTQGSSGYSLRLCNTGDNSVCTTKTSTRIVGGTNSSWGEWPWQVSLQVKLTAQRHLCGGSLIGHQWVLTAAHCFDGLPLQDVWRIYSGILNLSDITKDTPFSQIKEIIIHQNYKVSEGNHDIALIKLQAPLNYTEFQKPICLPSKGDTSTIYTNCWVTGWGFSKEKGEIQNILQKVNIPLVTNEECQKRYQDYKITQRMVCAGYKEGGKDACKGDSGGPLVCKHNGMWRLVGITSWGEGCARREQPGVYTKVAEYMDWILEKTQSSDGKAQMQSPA

Target: human plasma kallikrein (Homo sapiens (Human), UniProt P03952)
Settings: human plasma kallikrein 25 pM, substrate 0.5 uM, 1 hour pre-incubation at room temperature, read at t=60 min

| SMILES | IC50 [nM] |
| --- | --- |
| COc1ccc(Cn2cc(C(=O)NCc3c(C)cc(N)nc3C)cn2)cc1 [Example 13, N-((6-amino-2,4-dimethylpyridin-3-yl)methyl)-1-(4-methoxybenzyl)-1H-pyrazole-4-carboxamide] | 150 |
| Cc1ccc2cc(Cn3cc(C(=O)NC4(c5c(C)cc(N)nc5C)CC4)nn3)ccc2n1 [Example 164, N-((6-Amino-2,4-dimethylpyridin-3-yl)cyclopropyl)-1-((2-methylquinolin-6-yl)methyl)-1H-1,2,3-triazole-4-carboxamide] | 1200 |
| Cc1cc(N)nc(C)c1CNC(=O)c1cn(Cc2ccc3ccc(Cl)cc3n2)nn1 [Example 158, N-((6-amino-2,4-dimethylpyridin-3-yl)methyl)-1-((7-chloroquinolin-2-yl)methyl)-1H-1,2,3-triazole-4-carboxamide] | 4 |
| Cc1cc(N)nc(C)c1CNC(=O)c1cnn(Cc2ccc3c(c2)nc(C)n3C)c1 [Example 165, N-((6-Amino-2,4-dimethylpyridin-3-yl)methyl)-1-((1,2-dimethyl-1H-benzo[d]imidazol-5-yl)methyl)-1H-pyrazole-4-carboxamide] | 6 |
| Cc1cc(N)nc(C)c1CNC(=O)c1coc(Nc2ccccc2)n1 [Example 20, N-((6-amino-2,4-dimethylpyridin-3-yl)methyl)-2-(phenylamino)oxazole-4-carboxamide] | 7400 |
| Cc1cc(N)nc(C)c1CNC(=O)c1cc(Cn2ccc3ccccc3c2=O)oc1C [Example 79, N-((6-amino-2,4-dimethylpyridin-3-yl)methyl)-2-methyl-5-((1-oxoisoquinolin-2(1H)-yl)methyl)furan-3-carboxamide] | 166 |
| Cc1cc(N)nc(C)c1CNC(=O)c1cnn(Cc2ccc(C(=O)NC(C)C)cc2)c1 [Example 120, N-((6-amino-2,4-dimethylpyridin-3-yl)methyl)-1-(4-(isopropylcarbamoyl)benzyl)-1H-pyrazole-4-carboxamide] | 223 |
| Cc1cc(N)nc(C)c1CNC(=O)c1cnn(Cc2ccc3ccc(Cl)cc3n2)c1 [Example 157, N-((6-amino-2,4-dimethylpyridin-3-yl)methyl)-1-((7-chloroquinolin-2-yl)methyl)-1H-pyrazole-4-carboxamide] | 2 |
| Cc1ccc2cc(Cn3cc(C(=O)NCc4c(C)cc(N)nc4C)nn3)cnc2c1 [Example 156, N-((6-amino-2,4-dimethylpyridin-3-yl)methyl)-1-((7-methylquinolin-3-yl)methyl)-1H-1,2,3-triazole-4-carboxamide] | 0.92 |
| Cc1cc(N)nc(C)c1CNC(=O)c1ccc(Cn2ccc3ccccc3c2=O)o1 [Example 1, N-((6-amino-2,4-dimethylpyridin-3-yl)methyl)-5-((1-oxoisoquinolin-2(1H)-yl)methyl)furan-2-carboxamide] | 810 |
